According to patent US11099188B2:

How the values were obtained:
[1] = system: BaF3 expressing FIG-ROS(L); test: MTS assay, growth of BaF3 cells expressing FIG-ROS(L); conditions: same concentration of each, 0-1.0 uM, FIG. 21A/21B
[2] = system: BaF3 expressing FIG-ROS(S); test: MTS assay, growth of BaF3 cells expressing FIG-ROS(S); conditions: same concentration of each, 0-1.0 uM, FIG. 21A/21B

## C[C@@H](Oc1cc(-c2cnn(C3CCNCC3)c2)cnc1N)c1c(Cl)ccc(F)c1Cl [crizotinib]
[1]
  sensitivity of cellular growth, TAE-684 compared with crizotinib: more sensitive to TAE-684 than to crizotinib
[2]
  sensitivity of cellular growth, TAE-684 compared with crizotinib: more sensitive to TAE-684 than to crizotinib
